Measured affinities in a library of Ab-14 heavy chain variants

The measurements come from Li et al. 2023 (doi:10.1038/s41467-023-39022-2) through the FLAb antibody collection.

Binding partner: SARS-CoV-2 spike HR2 peptide, sequence PDVDLGDISGINAS.

Parent: Ab-14, a human scFv built as VH, three GGGGS repeats, VL. Only the CDRs of the heavy chain vary.
VH: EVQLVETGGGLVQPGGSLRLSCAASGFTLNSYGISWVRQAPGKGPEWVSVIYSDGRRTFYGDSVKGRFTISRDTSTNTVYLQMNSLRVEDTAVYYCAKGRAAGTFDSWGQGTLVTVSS
VL: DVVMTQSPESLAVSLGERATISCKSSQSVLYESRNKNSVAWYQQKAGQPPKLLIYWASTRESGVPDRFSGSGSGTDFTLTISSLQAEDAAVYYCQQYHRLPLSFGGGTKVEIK

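These sequences belong to a second round, designed from the earlier measurements on random variants of the parent. Several design methods are mixed in this list. In AlphaSeq, yeast of one mating type display the scFv and yeast of the other type display the target. After mating in shaken culture at 30 °C for 16 h, diploids were selected and their barcode pairs sequenced. A regression on co-assayed BCL2-family reference pairs converts the normalised counts of each replicate to an apparent Kd. Each pool was mated in six replicate cultures.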

The parent's heavy chain CDRs are GFTLNSYGIS, VIYSDGRRTFYGDSVK, GRAAGTFDS; each variant's own CDRs replace them letter for letter. This list holds designs with more than six substitutions. Kd is apparent (estimated from mating counts) and averaged on the log scale over replicates with a signal. Smaller is tighter. "not detected" marks a missing value. The strain was present, yet no cells mated with the target were sequenced in any replicate, which points to weak or no binding. The parent sequence was in this pool as ten entries: three were never detected, three once, and four in most replicates, with averages from 2.2 nM to 240 nM. The range of this assay differs from that of the first round, and the authors advise against merging the two. The authors averaged sequences with at least three values out of six and counted those with two or fewer as poor binders. Background: pairings of all heavy chain designs with three empty control strains gave a value in 1% of cases (median 120 nM, 5th percentile 7.0 nM). Values in that range, when seen in few replicates, are hard to tell from nonspecific mating. Also given: how often the same scFv was detected with the empty control strains.

CDR-H1	CDR-H2	CDR-H3	Kd (apparent)	replicates with signal	empty controls
GFQIDEYGIS	VIYADGLRTVYDDAVK	GSDTGLFMI	2.2 nM	6 of 6	0 of 18
GFDLDEYGVS	VIYADGERKAYADKVK	GTHGETRDI	320 nM	2 of 6	0 of 18
GFDLNEYGIS	VIYADGSRTAYADSVK	GNEAGTFDV	450 pM	6 of 6	0 of 18
GFDLNDYGIS	VIYADGRRTFYADSVK	GEIAGTFDI	430 pM	6 of 6	1 of 18
GFDLNEYGIS	VIYADGLRTAYTDSVK	GNVAGTFDL	110 pM	5 of 6	0 of 18
GFDLNEYGIS	VIYADGVRTFYADSVK	GSNAGTFDV	550 pM	6 of 6	0 of 18
GFDLNEYGIS	VIYADGRRTAYADTVK	GNVAGTFDV	not detected	0 of 6	0 of 18
GFLLDDYGIS	VIYADGLRKAYVDEVK	GYVAGTFDM	600 pM	6 of 6	0 of 18
GFDLEEYGVS	VIYADGIRFAYAQDFK	GEAAGAFDL	14 nM	6 of 6	0 of 18
GFDIEDYGIS	VIYADGVRAMYKESFK	GGIAGTFLI	600 nM	1 of 6	0 of 18
GFDLNEYGIS	VIYADGVRKAYADSVK	GNEAGTFDV	200 pM	6 of 6	1 of 18
GFDLNEYGIS	VIYADGMRTAYVDDVK	GNVAGTFDV	140 pM	6 of 6	0 of 18
GFDLEEQGIS	VIYADGSRKAYAQDVK	GGHAVGFHV	not detected	0 of 6	0 of 18
GFNLDEYGVS	VIYADGQRTYYAQDVK	GKTGDHLFI	not detected	0 of 6	0 of 18
GFDLNEYGIS	VIYADGVRKFYADSVK	GENAGTFDV	620 pM	6 of 6	0 of 18
GFDIQDYGIS	VIYADGSRTAYTNSVK	GVQGAFYDL	300 nM	1 of 6	1 of 18
GFDLNEYGIS	VIYADGVRTVYADSVK	GENAGTFDL	650 pM	6 of 6	0 of 18
GFDLNEYGIS	VIYADGKRTVYADSVK	GNVAGTFDT	300 pM	6 of 6	0 of 18
GEDLDEYGVS	VIYADGRKQSYSNAVK	GAIAGNFDA	not detected	0 of 6	1 of 18
GFDLNEYGIS	VIYADGRRTAYSDSVK	GNVAGTFVQ	640 pM	6 of 6	0 of 18
GFDLNEYGIS	VIYADGMRQAYADSVK	GNTAGTFDV	1.1 nM	6 of 6	1 of 18
GFDINEYGIS	VIYADGRRTFYADSVK	GNQGGTFDI	1.3 nM	5 of 6	0 of 18
GFDLNEYGIS	VIYADGMRTYYADSVK	GEVAGTFDV	1.4 nM	6 of 6	0 of 18
GFDLDEYGIS	VIYADGMRTFYADSVK	GENAGTFDM	490 pM	6 of 6	0 of 18
GFDLESYGIS	VIYADGSRTAYADSVK	GNVAGTFDQ	310 pM	6 of 6	0 of 18
GFDLNEYGIS	VIYADGVRTAYADSVK	GNNAGTFDM	990 pM	6 of 6	0 of 18
GFDLNEYGIS	VIYADGRRTAYANDVK	GEVAGTFDV	390 pM	6 of 6	0 of 18
GFDLNEYGIS	VIYADGRRTFYADSVK	GQLAGTFSV	450 pM	6 of 6	0 of 18
GFSLDEYGIS	VIYADGMRTFYADDVK	GNVAGTFDV	320 pM	6 of 6	1 of 18
GFNISEYGIS	VIYADGRRTAYKDTVK	GNLTWLFDV	not detected	0 of 6	0 of 18
GENLSEYGIS	VIYADGKKTAYSNAVK	GAVGGIFVV	72 nM	6 of 6	1 of 18
GFDLDEYGIS	VIYADGRRTFYADSVK	GENAGTFDL	11 nM	6 of 6	0 of 18
GFDLEEYGIS	VIYADGMRTAYADDVK	GENAGTFDV	870 pM	6 of 6	0 of 18
GFDLDEYGIS	VIYADGQRTAYTDSVK	GEVAGTFDL	430 pM	6 of 6	0 of 18
GFDVDEYGIS	VIYADGKRSMYANKVK	GGIGGMFFQ	not detected	0 of 6	0 of 18
GFDIEEYGIS	VIYADGKRMAYSNKVK	GLMAGTMID	not detected	0 of 6	0 of 18
GFDINEYGIS	VIYADGRRTFYADSVK	GQTAGTFDD	300 pM	6 of 6	2 of 18
GFDLEEYGIS	VIYADGRRSSYTDKVK	GGTVQMNGI	not detected	0 of 6	0 of 18
GFDLNEYGIS	VIYADGRRTQYIDSVK	GNQAGTFDF	1.2 nM	6 of 6	1 of 18
GFDLNEYGIS	VIYADGMRTAYQDSVK	GNNAGTFDV	1.1 nM	6 of 6	0 of 18
GFDLNEYGIS	VIYADGKRTYYADSVK	GQNAGTFDI	130 pM	6 of 6	0 of 18
GFDLNEYGIS	VIYADGRRTFYSDSVK	GNIAGTFIQ	210 pM	6 of 6	0 of 18
GFDLNEYGIS	VIYADGLRTSYDDSVK	GQTAGTFDQ	980 pM	6 of 6	0 of 18
GFDLNEYGIS	VIYADGVRTSYADSVK	GETAGTFDV	81 pM	6 of 6	1 of 18
GFDLNEYGIS	VIYADGMRTAYANSVK	GENAGTFDV	4.3 nM	6 of 6	0 of 18
GKSLDEYGIS	VIYADGMRTFYANTVK	GEDGGFLNQ	not detected	0 of 6	0 of 18
GFDLEDYGIS	VIYADGKRSFVSNNVK	GQLGNAFSM	31 nM	6 of 6	1 of 18
GFDLQELGIS	VIYADGTRQAYSEKVK	GQLAGYLVD	not detected	0 of 6	1 of 18
GFDIEKYGIS	VIYADGQRVAYDSSVK	GENAGNFHV	not detected	0 of 6	0 of 18
GFDLNEYGIS	VIYADGRRTAYSDSVK	GEAGGTFDQ	1.3 nM	6 of 6	0 of 18
GFDLDEYGIS	VIYADGRRTAYADNVK	GENAGTFDV	500 pM	6 of 6	0 of 18
GFNLNEFGIS	VIYADGHRQAYVPNVK	GHLGGHFDM	not detected	0 of 6	0 of 18
GFDLNEYGIS	VIYADGMRTAYADSVK	GENAGTFDI	460 pM	6 of 6	0 of 18
GFDLNEYGIS	VIYADGMRTAYTDSVK	GNEAGTFDG	2.5 nM	6 of 6	1 of 18
GFDLNEYGIS	VIYADGSRTFYADSVK	GEAAGSFDL	4.1 nM	6 of 6	0 of 18
GFDLSEYGIS	VIYADGKRTAYADSVK	GNVAGTFDV	760 pM	6 of 6	0 of 18
GFDLDEYGIS	VIYADGQRTAYSDSVK	GENAGTFDM	1.2 nM	6 of 6	1 of 18
GFDLEDYGIS	VIYADGRRTAYIDSVK	GEHAGTFDV	650 pM	6 of 6	0 of 18
GFDLNEYGIS	VIYADGRRTFYADSVK	GESAGTFDQ	2.5 nM	5 of 6	0 of 18
GFDLNEYGIS	VIYADGMRTAYQDSVK	GNQAGTFDV	910 pM	6 of 6	1 of 18
GFDLNEYGIS	VIYADGLRTAYADSVK	GEVAGTFDV	not detected	0 of 6	0 of 18
GFDLDEYGIS	VIYADGQRTAYADSVK	GTNAGTFDV	340 pM	6 of 6	0 of 18
GFDLNEYGIS	VIYADGVRTAYADSVK	GNQAGTFDV	240 pM	6 of 6	0 of 18
GFDLDEYGIS	VIYADGMRTVYADSVK	GNNAGTFDV	25 nM	6 of 6	0 of 18
GFDLNEYGIS	VIYADGMRTFYIDSVK	GENAGTFDM	850 pM	6 of 6	0 of 18
GFDLNEYGIS	VIYADGRRTFYSDSVK	GEAGGTFDQ	3.0 nM	6 of 6	0 of 18
GFDLDEYGIS	VIYADGRRTAYADSVK	GNVAGTFDV	690 pM	6 of 6	0 of 18
GFTLDEYGIS	VIYADGKRTFYADSVK	GNVAGTFDQ	270 pM	6 of 6	0 of 18
GFDLDEYGIS	VIYADGQRTYYADSVK	GNQAGTFDV	830 pM	5 of 6	0 of 18
GFDLNEYGIS	VIYADGMRTSYVDSVK	GNNAGTFDV	490 pM	6 of 6	0 of 18
GFDLDEYGIS	VIYADGMRTAYTDSVK	GENAGTFDT	560 pM	6 of 6	0 of 18
GFDLNEYGIS	VIYADGKRTFYADSVK	GNLAGTFDQ	330 pM	6 of 6	1 of 18
GFDLNEYGIS	VIYADGLRTAYADSVK	GENAGTFDQ	1.1 nM	6 of 6	1 of 18
GFDLNEYGIS	VIYADGVRTFYADSVK	GNAAGTFNV	460 pM	6 of 6	0 of 18
GFDLDEYGIS	VIYADGQRTAYSDSVK	GETAGTFDL	600 pM	6 of 6	0 of 18
GFDLNEYGIS	VIYADGRRTAYSDSVK	GEVAGTFVV	290 pM	6 of 6	1 of 18
GFDVMEYGIS	VIYADGLRTQYANSVK	GGLETDFFV	not detected	0 of 6	0 of 18
GFDLDEYGIS	VIYADGMRTAYVDSVK	GEVAGTFDL	2.2 nM	6 of 6	0 of 18
GFDLEEYGIS	VIYADGMRTQYINAVK	GIAGDQMDV	not detected	0 of 6	0 of 18

Repeated from above, the 5 best binders with a signal in all replicates:

CDR-H1	CDR-H2	CDR-H3	Kd (apparent)	replicates with signal	empty controls
GFDLNEYGIS	VIYADGVRTSYADSVK	GETAGTFDV	81 pM	6 of 6	1 of 18
GFDLNEYGIS	VIYADGKRTYYADSVK	GQNAGTFDI	130 pM	6 of 6	0 of 18
GFDLNEYGIS	VIYADGMRTAYVDDVK	GNVAGTFDV	140 pM	6 of 6	0 of 18
GFDLNEYGIS	VIYADGVRKAYADSVK	GNEAGTFDV	200 pM	6 of 6	1 of 18
GFDLNEYGIS	VIYADGRRTFYSDSVK	GNIAGTFIQ	210 pM	6 of 6	0 of 18